According to patent US10196396B2 (priority 2016, dated 2019):
pKi: −log10 of the molar value.

Chains of the proteins cited; added tags and fusions are not shown.
UniProt P30542, whole entry: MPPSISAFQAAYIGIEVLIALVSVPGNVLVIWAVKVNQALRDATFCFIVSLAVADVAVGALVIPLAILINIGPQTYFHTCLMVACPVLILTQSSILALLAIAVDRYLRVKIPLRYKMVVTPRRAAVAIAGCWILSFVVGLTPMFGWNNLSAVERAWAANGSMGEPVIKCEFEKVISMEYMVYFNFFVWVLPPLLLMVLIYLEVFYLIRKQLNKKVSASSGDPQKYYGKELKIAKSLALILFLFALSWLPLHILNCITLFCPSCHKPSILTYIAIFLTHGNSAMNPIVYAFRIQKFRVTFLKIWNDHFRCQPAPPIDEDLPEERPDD

Tests used:
[1] = molecular target: human A2a adenosine receptor (Homo sapiens (Human), UniProt P29274); test: biochemical
[2] = molecular target: human A1 adenosine receptor (Homo sapiens (Human), UniProt P30542); test: biochemical

| SMILES | pKi [1] | pKi [2] |
| --- | --- | --- |
| O[C@@H]1[C@H](O)CS[C@H]1c1nnc2c(NCc3ccccc3)nccn12 [Compound 5, (2S,3R,4S)-2-(8-(benzylamino)-[1,2,4]triazolo[4,3-a]pyrazin-3-yl)tetrahydrothiophene-3,4-diol] | < 5.00 | < 5.00 |
| O[C@@H]1[C@H](O)CS[C@H]1c1nnc2c(NCc3cccc(I)c3)nccn12 [Compound 6, (2S,3R,4S)-2-(8-((3-iodobenzyl)amino)-[1,2,4]triazolo[4,3-a]pyrazin-3-yl)tetrahydrothiophene-3,4-diol] | < 5.00 | < 5.00 |
| O[C@@H]1[C@H](O)CS[C@H]1c1nnc2c(NCCc3ccccc3)nccn12 [Compound 11, (2S,3R,4S)-2-(8-(phenethylamino)-[1,2,4]triazolo[4,3-a]pyrazin-3-yl)tetrahydrothiophene-3,4-diol] | < 5.00 | < 5.00 |
| O[C@@H]1[C@H](O)CS[C@H]1c1nnc2c(NCc3cccc(F)c3)nccn12 [Compound 13, (2S,3R,4S)-2-(8-((3-fluorobenzyl)amino)-[1,2,4]triazolo[4,3-a]pyrazin-3-yl)tetrahydrothiophene-3,4-diol] | < 5.00 | < 5.00 |
| O[C@@H]1[C@H](O)CS[C@H]1c1nnc2c(NCc3cccc(Br)c3)nccn12 [Compound 17, (2S,3R,4S)-2-(8-((3-bromobenzyl)amino)-[1,2,4]triazolo[4,3-a]pyrazin-3-yl)tetrahydrothiophene-3,4-diol] | < 5.00 | < 5.00 |
| O[C@@H]1[C@H](O)CS[C@H]1c1nnc2c(NCCc3cccc(Cl)c3)nccn12 [Compound 24, (2S,3R,4S)-2-(8-((3-chlorophenethyl)amino)-[1,2,4]triazolo[4,3-a]pyrazin-3-yl)tetrahydrothiophene-3,4-diol] | < 5.00 | < 5.00 |
| O[C@@H]1[C@H](O)CS[C@H]1c1nnc2c(NCCc3cccc(Br)c3)nccn12 [Compound 25, (2S,3R,4S)-2-(8-((3-bromophenethyl)amino)-[1,2,4]triazolo[4,3-a]pyrazin-3-yl)tetrahydrothiophene-3,4-diol] | 5.00 to 6.00 | < 5.00 |
| O[C@@H]1[C@H](O)CS[C@H]1c1nnc2c(NCCc3cccc(F)c3)nccn12 [Compound 26, (2S,3R,4S)-2-(8-((3-fluorophenethyl)amino)-[1,2,4]triazolo[4,3-a]pyrazin-3-yl)tetrahydrothiophene-3,4-diol] | < 5.00 | < 5.00 |
| O[C@@H]1[C@H](O)CS[C@H]1c1nnc2c(C#Cc3cccc(Cl)c3)nccn12 [Compound 30, (2S,3R,4S)-2-(8-((3-chlorophenyl)ethynyl)-[1,2,4]triazolo[4,3-a]pyrazin-3-yl)tetrahydrothiophene-3,4-diol] | 5.00 to 6.00 | 5.00 to 6.00 |
| CC(C)CCNc1nccn2c([C@@H]3SC[C@@H](O)[C@H]3O)nnc12 [Compound 32, (2S,3R,4S)-2-(8-(isopentylamino)-[1,2,4]triazolo[4,3-a]pyrazin-3-yl)tetrahydrothiophene-3,4-diol] | < 5.00 | < 5.00 |
| O=S(=O)(Nc1nccn2c([C@@H]3SC[C@@H](O)[C@H]3O)nnc12)c1cccc(Cl)c1 [Compound 34, 3-chloro-N-(3-((2S,3R,4S)-3,4-dihydroxytetrahydrothiophen-2-yl)-[1,2,4]triazolo[4,3-a]pyrazin-8-yl)benzenesulfonamide] | < 5.00 | < 5.00 |
| O[C@@H]1[C@H](O)CO[C@H]1c1nnc2c(NCc3cccc(Cl)c3)nccn12 [Compound 35, (2S,3R,4R)-2-(8-((3-chlorobenzyl)amino)-[1,2,4]triazolo[4,3-a]pyrazin-3-yl)tetrahydrofuran-3,4-diol] | < 5.00 | < 5.00 |
| O[C@@H]1[C@H](O)CO[C@H]1c1nnc2c(NCCc3cccc(Cl)c3)nccn12 [Compound 39, (2S,3R,4R)-2-(8-((3-chlorophenethyl)amino)-[1,2,4]triazolo[4,3-a]pyrazin-3-yl)tetrahydrofuran-3,4-diol] | < 5.00 | < 5.00 |
| CNC(=O)c1ccc(CNc2nccn3c([C@@H]4SC[C@@H](O)[C@H]4O)nnc23)cc1F [Compound 40, 4-(((3-((2S,3R,4S)-3,4-dihydroxytetrahydrothiophen-2-yl)-[1,2,4]triazolo[4,3-a]pyrazin-8-yl)amino)methyl)-2-fluoro-N-methylbenzamide] | < 5.00 | < 5.00 |
| O[C@@H]1[C@H](O)CS[C@H]1c1nnc2c(N[C@H]3C[C@@H]3c3ccccc3)nccn12 [Compound 43, (2S,3R,4S)-2-(8-(((1S,2R)-2-phenylcyclopropyl)amino)-[1,2,4]triazolo[4,3-a]pyrazin-3-yl)tetrahydrothiophene-3,4-diol] | < 5.00 | < 5.00 |
| C[C@H](Nc1nccn2c([C@@H]3SC[C@@H](O)[C@H]3O)nnc12)c1cccc(Cl)c1 [Compound 45, (2S,3R,4S)-2-(8-(((S)-1-(3-chlorophenyl)ethyl)amino)-[1,2,4]triazolo[4,3-a]pyrazin-3-yl)tetrahydrothiophene-3,4-diol] | < 5.00 | < 5.00 |

| SMILES | pKi [1] | pKi [2] |
| --- | --- | --- |
| C[C@@H](Nc1nccn2c([C@@H]3SC[C@@H](O)[C@H]3O)nnc12)c1cccc(Cl)c1 [Compound 46, (2S,3R,4S)-2-(8-(((R)-1-(3-chlorophenyl)ethyl)amino)-[1,2,4]triazolo[4,3-a]pyrazin-3-yl)tetrahydrothiophene-3,4-diol] | < 5.00 | < 5.00 |
| O[C@@H]1[C@H](O)CS[C@H]1c1nnc2c(NCc3ccccc3Cl)nccn12 [Compound 47, (2S,3R,4S)-2-(8-((2-chlorobenzyl)amino)-[1,2,4]triazolo[4,3-a]pyrazin-3-yl)tetrahydrothiophene-3,4-diol] | < 5.00 | < 5.00 |
| O[C@@H]1[C@H](O)CS[C@H]1c1nnc2c(NCc3ccc(Cl)cc3)nccn12 [Compound 48, (2S,3R,4S)-2-(8-((4-chlorobenzyl)amino)-[1,2,4]triazolo[4,3-a]pyrazin-3-yl)tetrahydrothiophene-3,4-diol] | < 5.00 | < 5.00 |
| O[C@@H]1[C@H](O)CS[C@H]1c1nnc2c(NCCc3ccccc3F)nccn12 [Compound 50, (2S,3R,4S)-2-(8-((2-fluorophenethyl)amino)-[1,2,4]triazolo[4,3-a]pyrazin-3-yl)tetrahydrothiophene-3,4-diol] | < 5.00 | < 5.00 |
| O[C@@H]1[C@H](O)CS[C@H]1c1nnc2c(NCc3cc(Cl)cc(Cl)c3)nccn12 [Compound 55, (2S,3R,4S)-2-(8-((3,5-dichlorobenzyl)amino)-[1,2,4]triazolo[4,3-a]pyrazin-3-yl)tetrahydrothiophene-3,4-diol] | < 5.00 | < 5.00 |
| O[C@@H]1[C@H](O)CS[C@H]1c1nnc2c(NCc3cc(Cl)ccc3Cl)nccn12 [Compound 56, (2S,3R,4S)-2-(8-((2,5-dichlorobenzyl)amino)-[1,2,4]triazolo[4,3-a]pyrazin-3-yl)tetrahydrothiophene-3,4-diol] | < 5.00 | < 5.00 |
| O[C@@H]1[C@H](O)CS[C@H]1c1nnc2c(NCc3ccccc3I)nccn12 [Compound 62, (2S,3R,4S)-2-(8-((2-iodobenzyl)amino)-[1,2,4]triazolo[4,3-a]pyrazin-3-yl)tetrahydrothiophene-3,4-diol] | < 5.00 | < 5.00 |
| O[C@@H]1[C@H](O)CS[C@H]1c1nnc2c(NCCc3ccc(F)cc3)nccn12 [Compound 64, (2S,3R,4S)-2-(8-((4-fluorophenethyl)amino)-[1,2,4]triazolo[4,3-a]pyrazin-3-yl)tetrahydrothiophene-3,4-diol] | < 5.00 | < 5.00 |
| O[C@@H]1[C@H](O)CS[C@H]1c1cnc2c(NCc3cccc(Cl)c3)nccn12 [Compound 109, (2S,3R,4S)-2-(8-((3-chlorobenzyl)amino)imidazo[1,2-a]pyrazin-3-yl)tetrahydrothiophene-3,4-diol] | 5.00 to 6.00 | < 5.00 |
| O[C@@H]1[C@H](O)CS[C@H]1c1cnc2c(N3CCC(Cc4ccccc4)CC3)nccn12 [Compound 118, (2S,3R,4S)-2-(8-(4-benzylpiperidin-1-yl)imidazo[1,2-a]pyrazin-3-yl)tetrahydrothiophene-3,4-diol] | < 5.00 | < 5.00 |
| O[C@@H]1[C@H](O)CS[C@H]1c1cnc2c(N3CCN(Cc4ccc(F)cc4)CC3)nccn12 [Compound 119, (2S,3R,4S)-2-(8-(4-(4-fluorobenzyl)piperazin-1-yl)imidazo[1,2-a]pyrazin-3-yl)tetrahydrothiophene-3,4-diol] | < 5.00 | < 5.00 |
| O[C@@H]1[C@H](O)CS[C@H]1c1cnc2c(NCc3ccccc3)nccn12 [Compound 120, (2S,3R,4S)-2-(8-(benzylamino)imidazo[1,2-a]pyrazin-3-yl)tetrahydrothiophene-3,4-diol] | < 5.00 | < 5.00 |
| Cc1cccc(CNc2nccn3c([C@@H]4SC[C@@H](O)[C@H]4O)cnc23)c1 [Compound 121, (2S,3R,4S)-2-(8-((3-methylbenzyl)amino)imidazo[1,2-a]pyrazin-3-yl)tetrahydrothiophene-3,4-diol] | < 5.00 | < 5.00 |
| O[C@@H]1[C@H](O)CS[C@H]1c1cnc2c(NCc3cccc(F)c3)nccn12 [Compound 122, (2S,3R,4S)-2-(8-((3-fluorobenzyl)amino)imidazo[1,2-a]pyrazin-3-yl)tetrahydrothiophene-3,4-diol] | < 5.00 | < 5.00 |
| O[C@@H]1[C@H](O)CS[C@H]1c1cnc2c(NCc3cccc(C(F)(F)F)c3)nccn12 [Compound 123, (2S,3R,4S)-2-(8-((3-(trifluoromethyl)benzyl)amino)imidazo[1,2-a]pyrazin-3-yl)tetrahydrothiophene-3,4-diol] | < 5.00 | < 5.00 |
| O[C@@H]1[C@H](O)CS[C@H]1c1cnc2c(NCc3cccc(I)c3)nccn12 [Compound 124, (2S,3R,4S)-2-(8-((3-iodobenzyl)amino)imidazo[1,2-a]pyrazin-3-yl)tetrahydrothiophene-3,4-diol] | < 5.00 | < 5.00 |
